In patent US20220389009A1, “SUBSTITUTED 1,6-NAPHTHYRIDINE INHIBITORS OF CDK5” (Goldfinch Bio, Inc., priority 2019, published 2022) one finds CDK5/CDK2 specificity and IC50 data, which are given here for 35 molecules.

By UniProt entry, the sequences of proteins in these tests, tags left out. Residues count along the entry.
UniProt Q00535, whole entry: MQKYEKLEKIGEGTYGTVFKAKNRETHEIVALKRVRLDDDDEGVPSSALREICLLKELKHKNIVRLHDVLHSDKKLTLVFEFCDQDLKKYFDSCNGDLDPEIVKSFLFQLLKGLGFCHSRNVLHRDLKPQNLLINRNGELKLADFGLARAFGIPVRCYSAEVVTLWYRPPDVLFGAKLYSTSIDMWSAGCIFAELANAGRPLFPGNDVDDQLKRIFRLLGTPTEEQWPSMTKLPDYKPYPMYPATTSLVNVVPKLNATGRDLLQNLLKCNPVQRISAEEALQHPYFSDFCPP
UniProt Q15078, 99-307 partner limits assumed: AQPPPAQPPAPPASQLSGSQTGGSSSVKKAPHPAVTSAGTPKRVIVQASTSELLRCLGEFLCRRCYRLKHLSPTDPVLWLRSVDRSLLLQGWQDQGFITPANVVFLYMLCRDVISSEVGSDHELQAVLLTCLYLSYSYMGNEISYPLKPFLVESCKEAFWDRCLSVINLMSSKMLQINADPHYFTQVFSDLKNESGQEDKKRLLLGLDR

For one assay, the target named is CDK5/p25 (Homo sapiens, UniProt Q00535). Description: CDK5 mobility shift assay (enzymatic activity of CDK5/p25). The conditions noted are these: for CDK5/CDK2 specificity: fold more active against CDK5 than CDK2; for IC50: read-out: CDK5 IC50, 0.154 nM CDK5/p25, FL peptide 29, 60 min at room temperature.
The next assay deals with CDK2/CycA2 (Homo sapiens, UniProt P24941). Description: CDK2 mobility shift assay (enzymatic activity of CDK2/CycA2). The conditions noted are these: read-out: CDK2 IC50, 1.25 nM CDK2/CycA2, 37 μM ATP, FL Peptide 18, 120 min at room temperature.

Like-named read-outs stand apart in the source and are kept apart here.

Turning to `COc1cc(-c2ccc(Nc3cc4nc(S(=O)(=O)C5CCN(C)CC5)ccc4cn3)c(F)c2)ccn1`, at CDK5/p25, the CDK5/CDK2 specificity entry was “+++ (greater than 100-fold more active against CDK5 than CDK2)” and the IC50 was less than 10 nM. Besides, on CDK2/CycA2, the IC50 is more than 1000 nM.
On the same counts, the results for `CN1CCC(S(=O)(=O)c2ccc3cnc(Nc4ccc(-n5ccc(C#N)n5)cc4F)cc3n2)CC1` are “+++ (greater than 100-fold more active against CDK5 than CDK2)”, less than 10 nM and more than 1000 nM.
On the same counts, the results for `C[C@@H]1C[C@@H](S(=O)(=O)c2ccc3cnc(Nc4ccc(-n5ccc(CO)n5)cc4F)cc3n2)CCN1` are “+ (10-fold or less more active against CDK5 than CDK2)”, 100 to 1000 nM and more than 1000 nM.
Take `CN1CCC(S(=O)(=O)c2ccc3cnc(Nc4ccc(-c5nnn[nH]5)cc4)cc3n2)CC1`: at CDK5/p25, the CDK5/CDK2 specificity result is listed as “+++ (greater than 100-fold more active against CDK5 than CDK2)” and the 50% inhibitory concentration (IC50) is less than 10 nM. Besides, on CDK2/CycA2, the IC50 fell in the range of 100 to 1000 nM.
On the same counts, the results for `CN1CCC(S(=O)(=O)c2ccc3cnc(Nc4ccc(-c5ccncc5)cc4F)cc3n2)CC1` are “+++ (greater than 100-fold more active against CDK5 than CDK2)”, less than 10 nM and 100 to 1000 nM.
`Cc1ccc(Nc2cc3nc(S(=O)(=O)C4CCN(C)CC4)ccc3cn2)cc1`: at CDK5/p25, the CDK5/CDK2 specificity result was “+++ (greater than 100-fold more active against CDK5 than CDK2)” and the IC50 is less than 10 nM. The 50% inhibitory concentration (IC50) on CDK2/CycA2 was in the range of 100 to 1000 nM.
On the same counts, the results for `N#Cc1cccc(-c2ccc(Nc3cc4nc(S(=O)(=O)C5CCN(CCO)CC5)ccc4cn3)c(F)c2)c1` are “+++ (greater than 100-fold more active against CDK5 than CDK2)”, less than 10 nM and more than 1000 nM.
On the same counts, the results for `CN1CCC(S(=O)(=O)c2ccc3cnc(Nc4ccc(-c5cccnc5)cc4F)cc3n2)CC1` are “+++ (greater than 100-fold more active against CDK5 than CDK2)”, less than 10 nM and 100 to 1000 nM.
On the same counts, the results for `O=S(=O)(c1ccc2cnc(Nc3ccc(-n4ccc(CO)n4)cc3F)cc2n1)C1CCN(CC2COC2)CC1` are “+++ (greater than 100-fold more active against CDK5 than CDK2)”, less than 10 nM and 100 to 1000 nM.
As for `NC(=O)CN1CCC(S(=O)(=O)c2ccc3cnc(Nc4ccc(-n5ccc(CO)n5)cc4F)cc3n2)CC1`, at CDK5/p25, the CDK5/CDK2 specificity result is “++ (greater than 10-fold and less than or equal to 100-fold more active against CDK5 than CDK2)”; the concentration for half-maximal inhibition (IC50) was 10 to 100 nM. In addition, on CDK2/CycA2, the concentration for half-maximal inhibition (IC50) was 100 to 1000 nM.
Turning to `CCc1cccc(Nc2cc3nc(S(=O)(=O)C4CCN(C)CC4)ccc3cn2)c1`, at CDK5/p25, the CDK5/CDK2 specificity entry is reported as “+++ (greater than 100-fold more active against CDK5 than CDK2)”. Moreover, the half-maximal inhibitory concentration (IC50) on CDK5/p25 was less than 10 nM; at CDK2/CycA2, 10 to 100 nM.
On the same counts, the results for `COc1ccc(-c2ccc(Nc3cc4nc(S(=O)(=O)C5CCN(C)CC5)ccc4cn3)c(F)c2)cc1` are “+++ (greater than 100-fold more active against CDK5 than CDK2)”, less than 10 nM and 100 to 1000 nM.
Turning to `CO/N=C(\c1ccc2cnc(Nc3ccc(-n4cccn4)cc3F)cc2n1)C1CCN(C)CC1`, the CDK5/CDK2 specificity entry at CDK5/p25 is “++ (greater than 10-fold and less than or equal to 100-fold more active against CDK5 than CDK2)”. Further, the IC50 was 100 to 1000 nM at CDK5/p25 and more than 1000 nM on CDK2/CycA2.
As to `N[C@H]1C[C@H](S(=O)(=O)c2ccc3cnc(Nc4ccc(-n5ccc(CO)n5)cc4F)cc3n2)C1` (relative stereo), on CDK5/p25, the CDK5/CDK2 specificity entry is “+ (10-fold or less more active against CDK5 than CDK2)” and the 50% inhibitory concentration (IC50) fell in the range of 100 to 1000 nM. Further, on CDK2/CycA2, the IC50 lay in the range of 100 to 1000 nM.
For `CC(C)N1CCC(N(CC(=O)O)c2ccc3cnc(Nc4ccc(-n5ccc(CO)n5)cc4F)cc3n2)CC1`, on CDK5/p25, the CDK5/CDK2 specificity result is “+++ (greater than 100-fold more active against CDK5 than CDK2)” and the IC50 lay in the range of 10 to 100 nM. Also, the IC50 on CDK2/CycA2 is more than 1000 nM.
`OCc1ccn(-c2ccc(Nc3cc4nc(SC5CCNCC5(F)F)ccc4cn3)c(F)c2)n1` (stereo not drawn): on CDK5/p25, the CDK5/CDK2 specificity result was “++ (greater than 10-fold and less than or equal to 100-fold more active against CDK5 than CDK2)”; the IC50 was less than 10 nM. For the same molecule, at CDK2/CycA2, the concentration for half-maximal inhibition (IC50) lay within 10 to 100 nM.
In the case of `COc1cc(-c2ccc(Nc3cc4nc([C@@](O)(C5CCN(C)CC5)C(F)(F)F)ccc4cn3)c(F)c2)ccn1`, the CDK5/CDK2 specificity result on CDK5/p25 is “++ (greater than 10-fold and less than or equal to 100-fold more active against CDK5 than CDK2)”. The concentration for half-maximal inhibition (IC50) on CDK5/p25 was less than 10 nM; on CDK2/CycA2, 100 to 1000 nM.
As to `O=C(O)CN(c1ccc2cnc(Nc3ccc(-n4ccc(CO)n4)cc3F)cc2n1)C1CC2CCCC(C1)N2` (stereo not drawn), on CDK5/p25, the CDK5/CDK2 specificity entry is reported as “+ (10-fold or less more active against CDK5 than CDK2)” and the half-inhibitory concentration (IC50) lay in the range of 100 to 1000 nM. In addition, the concentration for half-maximal inhibition (IC50) at CDK2/CycA2 is more than 1000 nM.
On the same counts, the results for `CN1CCC(S(=O)(=O)c2ccc3cnc(Nc4ccc(-c5ccc(C(N)=O)cc5)cc4F)cc3n2)CC1` are “+++ (greater than 100-fold more active against CDK5 than CDK2)”, less than 10 nM and 100 to 1000 nM.
For `CN1CCC([C@H](O)c2ccc3cnc(Nc4ccc(-c5cccc(C#N)c5)cc4F)cc3n2)CC1` (single isomer, unassigned), on CDK5/p25, the CDK5/CDK2 specificity entry was “++ (greater than 10-fold and less than or equal to 100-fold more active against CDK5 than CDK2)”; the IC50 was 10 to 100 nM. For the same molecule, at CDK2/CycA2, the IC50 is more than 1000 nM.
Consider `CN1CCC(Sc2ccc3cnc(Nc4ccc(-n5ccc(CO)n5)cc4F)cc3n2)C(F)(F)C1` (stereo not drawn), for which, at CDK5/p25, the CDK5/CDK2 specificity entry was “++ (greater than 10-fold and less than or equal to 100-fold more active against CDK5 than CDK2)”; the IC50 lay within 10 to 100 nM. The IC50 on CDK2/CycA2 lay in the range of 100 to 1000 nM.
As to `N[C@H]1CC[C@H](N(CC(=O)O)c2ccc3cnc(Nc4ccc(-n5cccn5)cc4F)cc3n2)CC1`, at CDK5/p25, the CDK5/CDK2 specificity result is “++ (greater than 10-fold and less than or equal to 100-fold more active against CDK5 than CDK2)”; the IC50 is 100 to 1000 nM. Moreover, the IC50 on CDK2/CycA2 was more than 1000 nM.
Take `CN1CCC([C@@H](O)c2ccc3cnc(Nc4ccc(-c5cccc(C#N)c5)cc4F)cc3n2)CC1` (single isomer, unassigned): on CDK5/p25, the CDK5/CDK2 specificity result is “+++ (greater than 100-fold more active against CDK5 than CDK2)” and the IC50 is less than 10 nM. Besides, the IC50 at CDK2/CycA2 lay within 100 to 1000 nM.
On the same counts, the results for `N[C@H]1C[C@@H](S(=O)(=O)c2ccc3cnc(Nc4ccc(-n5ccc(CO)n5)cc4F)cc3n2)C1` are “+ (10-fold or less more active against CDK5 than CDK2)”, 100 to 1000 nM and more than 1000 nM.
On to `NS(=O)(=O)c1cccc(Nc2cc3nc(SC4CCNCC4)ccc3cn2)c1`, for which, on CDK5/p25, the CDK5/CDK2 specificity entry is “++ (greater than 10-fold and less than or equal to 100-fold more active against CDK5 than CDK2)”; the 50% inhibitory concentration (IC50) is less than 10 nM. Further, the IC50 on CDK2/CycA2 lay in the range of 10 to 100 nM.
Consider `CC(C(=O)O)N(c1ccc2cnc(Nc3ccc(-n4ccc(CO)n4)cc3F)cc2n1)C1CCNCC1` (stereo not drawn), for which, on CDK5/p25, the CDK5/CDK2 specificity entry is “+ (10-fold or less more active against CDK5 than CDK2)” and the IC50 was more than 1000 nM. The IC50 at CDK2/CycA2 is more than 1000 nM.
Turning to `CN1CCC(S(=O)(=O)c2ccc3cnc(Nc4ccc(CC#N)cc4)cc3n2)CC1`, at CDK5/p25, the CDK5/CDK2 specificity entry was “++ (greater than 10-fold and less than or equal to 100-fold more active against CDK5 than CDK2)”; the IC50 was less than 10 nM. Besides, on CDK2/CycA2, the IC50 lay in the range of 10 to 100 nM.
`C[C@H]1CNCC[C@@H]1S(=O)(=O)c1ccc2cnc(Nc3ccc(-n4ccc(CO)n4)cc3F)cc2n1`: at CDK5/p25 (tested form: formate), the CDK5/CDK2 specificity result is “++ (greater than 10-fold and less than or equal to 100-fold more active against CDK5 than CDK2)”; the IC50 is less than 10 nM. Moreover, the half-inhibitory concentration (IC50) on CDK2/CycA2 (tested form: formate) lay in the range of 100 to 1000 nM.
For the molecule `CCC(c1ccc2cnc(Nc3ccc(-n4ccc(CO)n4)cc3F)cc2n1)C1CCNCC1` (stereo not drawn), at CDK5/p25, the CDK5/CDK2 specificity result is “++ (greater than 10-fold and less than or equal to 100-fold more active against CDK5 than CDK2)”; the IC50 lay within 100 to 1000 nM. Moreover, the IC50 on CDK2/CycA2 was more than 1000 nM.
Turning to `O=S(=O)(c1ccc2cnc(Nc3ccc(-n4ccc(CO)n4)cc3F)cc2n1)C1CCN(CCO)CC1`, at CDK5/p25, the CDK5/CDK2 specificity entry is “++ (greater than 10-fold and less than or equal to 100-fold more active against CDK5 than CDK2)”; the 50% inhibitory concentration (IC50) was in the range of 10 to 100 nM. In addition, at CDK2/CycA2, the IC50 was 100 to 1000 nM.
As for `CN1CCC([C@@](C)(O)c2ccc3cnc(Nc4ccc(-n5ccccc5=O)cc4F)cc3n2)CC1`, on CDK5/p25, the CDK5/CDK2 specificity result is “++ (greater than 10-fold and less than or equal to 100-fold more active against CDK5 than CDK2)”. Moreover, the half-maximal inhibitory concentration (IC50) at CDK5/p25 was less than 10 nM; on CDK2/CycA2, 100 to 1000 nM.
With `CCn1cccc(-c2ccc(Nc3cc4nc(C(C)(O)C5CCN(C)CC5)ccc4cn3)c(F)c2)c1=O` (stereo not drawn), at CDK5/p25, the CDK5/CDK2 specificity entry was “++ (greater than 10-fold and less than or equal to 100-fold more active against CDK5 than CDK2)”; the IC50 was less than 10 nM. The IC50 at CDK2/CycA2 lay within 100 to 1000 nM.
Take `CN1CCC(C(O)c2ccc3cnc(Nc4ccc(-n5cccn5)cc4F)cc3n2)CC1` (stereo not drawn): on CDK5/p25, the CDK5/CDK2 specificity entry is “++ (greater than 10-fold and less than or equal to 100-fold more active against CDK5 than CDK2)”; the IC50 is less than 10 nM. Also, the IC50 on CDK2/CycA2 lay in the range of 100 to 1000 nM.
As for `C[C@@H]1CNCC[C@H]1Sc1ccc2cnc(Nc3ccc(-n4ccc(CO)n4)cc3F)cc2n1`, on CDK5/p25, the CDK5/CDK2 specificity result was “++ (greater than 10-fold and less than or equal to 100-fold more active against CDK5 than CDK2)”; the IC50 is less than 10 nM. Moreover, on CDK2/CycA2, the IC50 was 10 to 100 nM.
As to `CN1CCC(S(=O)(=O)c2ccc3cnc(Nc4cccc(C#N)c4)cc3n2)CC1`, on CDK5/p25, the CDK5/CDK2 specificity result is “++ (greater than 10-fold and less than or equal to 100-fold more active against CDK5 than CDK2)”; the concentration for half-maximal inhibition (IC50) was less than 10 nM. Besides, the 50% inhibitory concentration (IC50) on CDK2/CycA2 was in the range of 100 to 1000 nM.

Broadly, the IC50 is the point on the concentration scale where inhibition reaches its midpoint.
